In paper PMC10141580, “Cyclic Dichalcogenides Extend the Reach of Bioreductive Prodrugs to Harness Thiol/Disulfide Oxidoreductases: Applications to seco-Duocarmycins Targeting the Thioredoxin System” (ACS Central Science, 2023):

These compounds were tested on Balb/c mice with 4T1 tumors (assay: 4T1-bearing tolerability study). Conditions: 3 mg/kg once or twice per week, 4T1-bearing Balb/c mice.
For `COc1cc2cc(C(=O)N3CC(CCl)c4c3cc(OC(=O)N3CCN(C)C5CSSCC53)c3ccccc43)[nH]c2c(OC)c1OC` (mixture of isomers) [Me-SS66C-CBI-TMI], the tolerability was “tolerated”. `COc1cc2cc(C(=O)N3C[C@@H](CCl)c4c3cc(OC(=O)N(CCC(=O)N3CCN(C)CC3)C3CCCCC3)c3ccccc43)[nH]c2c(OC)c1OC` [P-CC60-CBI-TMI] was tested, and the tolerability was “tolerated”. For `COc1cc2cc(C(=O)N3C[C@@H](CCl)c4c3cc(OC(=O)N(CCC(=O)N3CCN(C)CC3)[C@H]3CCSSC3)c3ccccc43)[nH]c2c(OC)c1OC` [P-SS60-CBI-TMI], the tolerability was “tolerated”. `COc1cc2cc(C(=O)N3C[C@@H](CCl)c4c3cc(OC(=O)N3CCN(C(=O)CCC(=O)N5CCN(C)CC5)[C@H]5CSSC[C@H]53)c3ccccc43)[nH]c2c(OC)c1OC` [P-SS66C-CBI-TMI] was tested, and the tolerability was “tolerated”.
